According to patent US10398687B2, “Use of cyproheptadine to treat organophosphate exposure” (dated 2019):

Tested on: 2.75×LD50 sarin
Details: dose giving 75% survival

In the case of CN1[C@@H]2CC[C@H]1C[C@@H](OC(=O)C(CO)c1ccccc1)C2 (stereo partly shown), the “ED75, 2.75X Sarin Challenge” value is reported as “ED75: 10.0 mg/kg”.
